Read-outs that look alike come from different tables or passages of the source.
Biological target: μ‐opioid receptor wild type (MOR‐WT) (Rattus norvegicus, UniProt P33535)
Test: biochemical
Parameters: expressed in transfected cells

Chains of the proteins cited; added tags and fusions are not shown.
UniProt P33535, whole entry: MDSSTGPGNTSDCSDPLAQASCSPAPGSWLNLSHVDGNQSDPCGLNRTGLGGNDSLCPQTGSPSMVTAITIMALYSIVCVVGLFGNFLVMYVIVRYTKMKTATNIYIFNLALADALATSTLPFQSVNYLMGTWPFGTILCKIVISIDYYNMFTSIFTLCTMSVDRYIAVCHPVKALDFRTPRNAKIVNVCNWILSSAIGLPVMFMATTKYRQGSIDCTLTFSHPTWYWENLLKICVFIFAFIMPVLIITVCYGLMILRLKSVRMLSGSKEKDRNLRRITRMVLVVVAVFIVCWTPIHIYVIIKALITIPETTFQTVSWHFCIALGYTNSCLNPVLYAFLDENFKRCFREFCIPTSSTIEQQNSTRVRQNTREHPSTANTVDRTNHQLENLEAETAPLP

Work on C[C@@H](NC(=O)[C@@H](N)Cc1ccc(O)cc1)C(=O)NCC(=O)N(C)[C@@H](Cc1ccccc1)C(=O)NCCO [DAMGO, [D‐Ala2,N‐Me‐Phe4,Gly5‐ol]‐enkephalin] yielded an Emax (pH 6, read-out: E max (maximum intrinsic activity), [35S]-GTPγS binding) of 116.2 ± 1.1% and an Emax (pH 6.5, read-out: E max (maximum intrinsic activity), [35S]-GTPγS binding) of 116.7 ± 0.9%.
